## AlphaSeq binding of Ab-95 light chain variants to a spike HR2 peptide

Source: Engelhart et al. 2022 (doi:10.1038/s41597-022-01779-4), MIT Lincoln Laboratory and A-Alpha Bio; data file from the FLAb repository.

Binding partner: SARS-CoV-2 spike HR2 peptide, sequence PDVDLGDISGINAS.

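Phage display of a naive human antibody library on the peptide gave the parent. In library AAYL52, one, two or three CDR residues were substituted; doubles and triples were drawn at random. The assay is AlphaSeq: two haploid yeast populations carry antibody and antigen on their surface. After mating in shaken culture at 30 °C for 16 h, diploids were selected and their barcode pairs sequenced. A regression on co-assayed BCL2-family reference pairs converts the normalised counts of each replicate to an apparent Kd. There are three technical replicates.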

Ab-95 is the parent antibody, in scFv form: VH, then three GGGGS repeats, then VL. The heavy chain is unchanged in all variants.
VH: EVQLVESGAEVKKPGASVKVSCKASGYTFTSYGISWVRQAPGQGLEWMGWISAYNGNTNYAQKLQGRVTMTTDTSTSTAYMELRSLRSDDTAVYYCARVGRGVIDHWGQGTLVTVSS
VL: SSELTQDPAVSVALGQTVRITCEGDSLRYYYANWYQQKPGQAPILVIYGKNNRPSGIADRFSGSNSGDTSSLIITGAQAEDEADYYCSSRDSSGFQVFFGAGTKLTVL

The parent's light chain CDRs are EGDSLRYYYAN, GKNNRPS, SSRDSSGFQVF; each variant's own CDRs replace them letter for letter.
The read-out is the apparent dissociation constant on a log10 scale (nM): the lower, the stronger.
Replicates are averaged; those with no signal do not enter the mean.
An entry "no signal" has no value in the source: the pair was not observed among the diploids in any replicate. This suggests poor binding but is not conclusive.
In this assay the parent's reference entry averaged 2.31; its copy inside this library read 2.25.
Background: pairings of library AAYL52 with three empty control strains gave a value in 28% of cases (median 3.91, 5th percentile 2.90). Values in that range, when seen in few replicates, are hard to tell from nonspecific mating.

CDR-L1,CDR-L2,CDR-L3,mean log10 Kd (nM),detected
EGDSLRYYYAN,GKNNRPS,SDRDVSGFQLF,2.74,3 of 3
EGDSLRKYYAN,GKNNRPG,SSYDSSGFQVF,3.39,2 of 3
EGDSLRYYYEN,GKNNFPS,SSRDSSGFYVF,4.61,2 of 3
EGDSLRYYYAN,GKCNRPS,SSRDSSGFQVS,4.31,1 of 3
EGDSLRYYYAN,GKNNRPD,SSGCSSGFQVF,2.83,3 of 3
EGDSLRYYYAN,GNNNRPS,SSRDSMGFNVF,2.74,3 of 3
EGDSLRYYYAN,GKNNMPS,SSRDSSGHLVF,5.60,1 of 3
EGDSLRYYYAN,GKNNRVS,SSRDSSCFRVF,2.35,3 of 3
EGDSLRYYYAN,GKQNRNS,SSRDSSGFQVE,3.70,3 of 3
EGDSLRYYEAN,GKNNKPS,SSRDSTGFQVF,1.15,3 of 3
EGDSLRLYYAN,GKNERPS,SSTDSSGFQVF,3.03,3 of 3
EGDSLMYYYAN,GKNNRPS,SSRPSHGFQVF,3.09,3 of 3
EGDSLFYYYAN,GKNNRPS,SMRDVSGFQVF,3.15,3 of 3
EGDSLRYYYAN,GKNNRSS,TSRDHSGFQVF,no signal,0 of 3
EGDSLRYYYAN,GKNNRWS,SSRDSSGGQVR,3.43,3 of 3
EGDSLRYYYAR,GKNNRPS,SSRDSNGFQVR,3.91,2 of 3
EKDSLRYYYAN,GKNRRPS,SSRDSSGTQVF,no signal,0 of 3
EGMSNRYVYAN,GKNNRPS,SSRDSSGFQVF,2.79,2 of 3
EGDSLRYYYAN,YKNNRPS,NSDDSSGFQVF,4.07,2 of 3
EGDSLRYYVAN,GYNNRPS,SSRDSSGFQVA,3.33,2 of 3
ELDSLRYYYAN,GKNNRGS,SSRDSSGFQVQ,3.46,1 of 3
EGDSLRYYYAN,GKNNRYS,SSADSSTFQVF,4.40,2 of 3
EGDSLRYYYAN,GKGNRPS,STSDSSGFQVF,no signal,0 of 3
EGDSLHYYYAN,GKNNRPS,SSGDSSGFQVS,2.85,3 of 3
EGDSLRYYYAA,GKNNRPS,MSRDSSGFQVF,2.16,3 of 3
EGDSLRYAGAN,GKNNRPS,SMRDSSGFQVF,1.44,3 of 3

Continued, with the values leading:

mean log10 Kd (nM),detected,CDR-L1,CDR-L2,CDR-L3
4.96,1 of 3,EADSYRYYYAN,GKNNRPN,SSRDSSGFQVF
2.99,3 of 3,EGDSLRYYYAN,GKNNRPS,ESRDSSGFQVH
3.29,3 of 3,EGDSLIYYYAN,GINNRPS,SSRDSSGRQVF
2.80,3 of 3,EGDSLRRYYAN,GKNNRPS,GSRDSSGFQCF
3.82,3 of 3,EWDSLRYYYAN,GKNIRPN,SSRDSSGFQVF
4.34,1 of 3,EGDSARYYYAD,GKNNRPS,SSDDSSGFQVF
3.55,3 of 3,EGDSLRYYYAN,GPFNRPS,SSRDSSGKQVF
2.93,3 of 3,EGDSLRYYYAN,GKNNRNS,SWRDSSGFQVF
5.17,1 of 3,EYDSLRYYYAV,GKQNRPS,SSRDSSGFQVF
1.29,3 of 3,EGDSLCYQYAN,GKNNRPS,SSRDSTGFQVF
no signal,0 of 3,EGDSLRYYYRN,GKNNRPS,SSFDSSGFQVF
5.41,1 of 3,EGDSLSYYYAN,GKNNRPV,SSLDSSGFQVF
no signal,0 of 3,EEDSLRYYYAN,GKNARPS,VSRDSSGFQVF
3.32,1 of 3,HGDSLRYYYAC,GKNNRPS,SSRDLSGFQVF
4.44,1 of 3,EGDSLHYYYAN,GKNNRPS,SSRDNSYFQVF
2.44,3 of 3,EGDSLRYYMAN,GKNNRPS,SSRDSSGFHVD
3.26,1 of 3,EGDSLRYYYAQ,EKNNRPS,GSRDSSGFQVF
3.98,3 of 3,EGDSLRYYYLN,GDNNRPS,SSRDSSGFQQF
1.62,3 of 3,EGDSLRFGYAN,GKNNRPS,PSRDSSGFQVF
3.25,3 of 3,EGDSGRYYYAN,GKNNRPS,YSRNSSGFQVF
1.72,3 of 3,EGDSLRYEYAN,GKNNRPS,SSRDSSGFTVF
no signal,0 of 3,EGDSLACYYAN,GKNNRPS,SSRDSGGFQVF
2.83,2 of 3,EGDSLRYYYAN,GKNNRPS,SNRDSHGFQQF
4.93,3 of 3,EGDSLRYDYAD,GKNTRPS,SSRDSSGFQVF
3.53,3 of 3,EGDSLRYYYAN,GKNNRPS,SSRDSSGGYVF
no signal,0 of 3,EGDSLRYYYIN,GKNNRCS,SSRDSSGFHVF

The first 7 variants above that were never detected:

| CDR-L1 | CDR-L2 | CDR-L3 | mean log10 Kd (nM) | detected |
|---|---|---|---|---|
| EGDSLRYYYAN | GKNNRSS | TSRDHSGFQVF | no signal | 0 of 3 |
| EKDSLRYYYAN | GKNRRPS | SSRDSSGTQVF | no signal | 0 of 3 |
| EGDSLRYYYAN | GKGNRPS | STSDSSGFQVF | no signal | 0 of 3 |
| EGDSLRYYYRN | GKNNRPS | SSFDSSGFQVF | no signal | 0 of 3 |
| EEDSLRYYYAN | GKNARPS | VSRDSSGFQVF | no signal | 0 of 3 |
| EGDSLACYYAN | GKNNRPS | SSRDSGGFQVF | no signal | 0 of 3 |
| EGDSLRYYYIN | GKNNRCS | SSRDSSGFHVF | no signal | 0 of 3 |